One experiment deals with Fbxo7 mRNA. In words: steady-state Fbxo7 mRNA by quantitative real-time PCR in H9C2 cells. The format is cell-based, rat. The settings on record: 16 h, normalized to GAPDH.
Experiment [1] addresses T1, interaction between Fbxo7 and Pink1 (Homo sapiens, UniProt Q9Y3I1).
T1 sequence (Q9Y3I1 1-522): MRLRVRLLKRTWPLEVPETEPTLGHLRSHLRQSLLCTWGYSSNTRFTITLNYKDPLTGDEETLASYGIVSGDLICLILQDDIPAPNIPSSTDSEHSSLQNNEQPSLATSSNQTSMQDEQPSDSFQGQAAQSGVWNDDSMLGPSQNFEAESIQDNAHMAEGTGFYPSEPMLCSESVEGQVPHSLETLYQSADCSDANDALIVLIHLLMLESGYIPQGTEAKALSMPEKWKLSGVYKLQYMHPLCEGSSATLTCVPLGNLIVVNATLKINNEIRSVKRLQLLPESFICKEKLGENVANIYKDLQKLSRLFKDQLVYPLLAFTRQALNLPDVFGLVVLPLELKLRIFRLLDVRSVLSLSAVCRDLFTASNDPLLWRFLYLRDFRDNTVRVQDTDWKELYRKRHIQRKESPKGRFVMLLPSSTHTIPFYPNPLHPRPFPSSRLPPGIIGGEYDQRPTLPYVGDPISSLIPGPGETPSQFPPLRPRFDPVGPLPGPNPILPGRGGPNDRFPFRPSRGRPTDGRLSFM
Briefly: in vitro binding assay: TnT synthesized Pink1 pulled down with drug bound Fbxo7 beads. The settings on record: increasing amounts of compound; immunoblot of pull-down. (In western blotting, separated proteins are transferred to a membrane and probed.)

The test system of a further experiment is Pink1 mRNA. In words: steady-state Pink1 mRNA by quantitative real-time PCR in H9C2 cells. Particulars: 16 h, normalized to GAPDH. The format is cell-based, rat.
Experiment [2] has as its system primary human fibroblasts. The settings on record: 400 μM MPP+ for 16 h.
The subject of a further experiment is Pink1. In words: Pink1 protein levels in BEAS-2B cells by immunoblotting. Particulars: indicated concentrations, 16 h.
A further experiment has as its system H9C2 cells. In words: tBHP-induced mitochondrial injury in H9C2 cells, MitoTracker Red flow cytometry. The settings on record: 100 ng/ml 16 h, tBHP 100 μM 45 min. (In flow cytometry, cells or beads pass a laser one at a time.)

SMILES strings stand for the structures.

Consider `O=C(CCCn1c(SCC(=O)NCC2CCCO2)nc2ccccc2c1=O)NCc1ccccc1` (centres unmarked) [BC1464], for which, in the experiment with Fbxo7 mRNA, the “mRNA levels of Fbxo7” value is “Neither BC1464 nor the control compound, BC1465, affected the mRNA levels”. The “interaction between Fbxo7 and Pink1” value in experiment [1] is “efficiently decreased the interaction between Fbxo7 and Pink1”. In the experiment with Pink1 mRNA, the “mRNA levels of Pink1” value was “Neither BC1464 nor the control compound, BC1465, affected the mRNA levels”. Also, the “protection against MPP+ (% cell death)” value in experiment [2] is on record as “conferred significant protection in all three primary human fibroblast cultures”. In the experiment with Pink1, the “Pink1 protein levels in cells” value is recorded as “increased Pink1 protein levels in cells in a dose dependent manner”.
As to `N#Cc1ccccc1Cn1c(=O)n(CCCC(=O)NCc2ccc3c(c2)OCO3)c(=O)c2ccccc21` [BC1465, reference compound], the “protection from tBHP-induced mitochondrial injury” value with H9C2 cells is recorded as “less effective ability to prevent tBHP-induced mitochondrial injury”. Besides, the “mRNA levels of Fbxo7” value with Fbxo7 mRNA is “Neither BC1464 nor the control compound, BC1465, affected the mRNA levels”. For the same compound, in the experiment on Pink1 mRNA, the “mRNA levels of Pink1” value is “Neither BC1464 nor the control compound, BC1465, affected the mRNA levels”.

The values above are taken from patent US12398123B2, “Chemical inhibition of the E3 ligase subunit FBXO7 confers neuroprotection and anti-inflammatory activity by stabilizing mitochondria” (University of Pittsburgh—Of the Commonwealth System of …, priority 2017, dated 2025).
